Experimental findings from US20060002929A1 are described below.

The assay addresses cOX40L expressed on CHO cells (cynomolgus monkey) (UniProt G7NVH7). In words: FACS neutralisation on CHO cells expressing cOX40L, percent inhibition of the binding of biotinylated cFc-OX40R (5 µg/ml); Ab C CHO-expressed lot.

B1: Ab C (antibody, V domains shown)
VH: QVQLVESGGGVVQPGRSLRLSCAASGFTFSFYGMHWVRQAPGKGLEWVAVIWYDGSNKYYADSVKGRFTISRDNSKNTLYLQMNSLRAEDTAVYYCARGGYDYVWGSYRRNSDFDYWGQGTLVTVSS
VL: DIVMTQTPLSSPVTLGQPASISCRSSQSLVHSDGNTYLSWLQQRPGQPPRLLIYKKFNRFSGVPDRFSGSGAGTDFTLKISRVEAEDVGVYYCMQATQIPLTFGPGTKVDIKR
B1 returned an IC50 (read off the curve) of 5 µg/mL.
